Values of other authors as cited in patent US20140212981A1, “METHODS AND SYSTEMS FOR DETERMINING THE AMOUNT OF THIOPURINE METABOLITES IN A SAMPLE” (Laboratory Corporation of America Holdings, priority 2012, published 2014).

Settings: metabolite level in red blood cells; levels in this range require modulation of therapy; cited from earlier work

## 6-thioguanine nucleotides [6-TGNs]
  Alert Values: >450 pmol/8 × 10^8RBC
